Data from US20060127310A1, “Amplification of biotin-mediated targeting” (priority 2002, published 2006).

Columns and labels:
4T1 = test: Uptake of Rhodamine-HPMA polymers into tumour cell lines; format: cell-based; design: key: −: Uptake was determined on a relative scale; +/−: Uptake was determined on a relative scale; +: Uptake was determined on a relative scale; ++: Uptake was determined on a relative scale; +++: Uptake was determined on a relative scale; settings: 4T1, Balb/C, Breast; 5 hours at 37° C.
Method: (§1) Cells from various tumour cell lines were allowed to grow for 2 days on glass slides incubated in appropriate media at 37° C. in 5% CO2. […] Cells were incubated for a further 5 hours at 37° C. in 5% CO2. At this time the media was removed and uptake into the cells was assessed by fluorescent microscopy of internalization of the rhodamine fluorophore. Uptake was determined on a relative scale.

B16 = test: as above; format: cell-based; design: key: −: Uptake was determined on a relative scale; +/−: Uptake was determined on a relative scale; +: Uptake was determined on a relative scale; ++: Uptake was determined on a relative scale; +++: Uptake was determined on a relative scale; settings: B16, C57/BI, Melanoma; 5 hours at 37° C.
Method: as §1

BW5147 = test: as above; format: cell-based; design: key: −: Uptake was determined on a relative scale; +/−: Uptake was determined on a relative scale; +: Uptake was determined on a relative scale; ++: Uptake was determined on a relative scale; +++: Uptake was determined on a relative scale; settings: BW5147, AKR/J, Lymphoma; 5 hours at 37° C.
Method: as §1

Colo-26 = test: as above; format: cell-based; design: key: −: Uptake was determined on a relative scale; +/−: Uptake was determined on a relative scale; +: Uptake was determined on a relative scale; ++: Uptake was determined on a relative scale; +++: Uptake was determined on a relative scale; settings: Colo-26, Balb/C, Colon Carcin; 5 hours at 37° C.
Method: as §1

HCT-116 = test: as above; format: cell-based; design: key: −: Uptake was determined on a relative scale; +/−: Uptake was determined on a relative scale; +: Uptake was determined on a relative scale; ++: Uptake was determined on a relative scale; +++: Uptake was determined on a relative scale; settings: HCT-116, Balb/C-Nu, Colon Carcin; 5 hours at 37° C.
Method: as §1

ID8 = test: as above; format: cell-based; design: key: −: Uptake was determined on a relative scale; +/−: Uptake was determined on a relative scale; +: Uptake was determined on a relative scale; ++: Uptake was determined on a relative scale; +++: Uptake was determined on a relative scale; settings: ID8, C57/BI, Ovarian; 5 hours at 37° C.
Method: as §1

JC = test: as above; format: cell-based; design: key: −: Uptake was determined on a relative scale; +/−: Uptake was determined on a relative scale; +: Uptake was determined on a relative scale; ++: Uptake was determined on a relative scale; +++: Uptake was determined on a relative scale; settings: Balb/C, Breast, 5 hours at 37° C.
Method: as §1

L1210FR = test: as above; format: cell-based; design: key: −: Uptake was determined on a relative scale; +/−: Uptake was determined on a relative scale; +: Uptake was determined on a relative scale; ++: Uptake was determined on a relative scale; +++: Uptake was determined on a relative scale; settings: DBA/2, Leukemia, 5 hours at 37° C.
Method: as §1

L1210 = test: as above; format: cell-based; design: key: −: Uptake was determined on a relative scale; +/−: Uptake was determined on a relative scale; +: Uptake was determined on a relative scale; ++: Uptake was determined on a relative scale; +++: Uptake was determined on a relative scale; settings: L1210, DBA/2, Leukemia; 5 hours at 37° C.
Method: as §1

LL-2 = test: as above; format: cell-based; design: key: −: Uptake was determined on a relative scale; +/−: Uptake was determined on a relative scale; +: Uptake was determined on a relative scale; ++: Uptake was determined on a relative scale; +++: Uptake was determined on a relative scale; settings: LL-2, C57/BI, Lung; 5 hours at 37° C.
Method: as §1

M109 = test: as above; format: cell-based; design: key: −: Uptake was determined on a relative scale; +/−: Uptake was determined on a relative scale; +: Uptake was determined on a relative scale; ++: Uptake was determined on a relative scale; +++: Uptake was determined on a relative scale; settings: M109, Balb/C, Lung; 5 hours at 37° C.
Method: as §1

MMT060562 = test: as above; format: cell-based; design: key: −: Uptake was determined on a relative scale; +/−: Uptake was determined on a relative scale; +: Uptake was determined on a relative scale; ++: Uptake was determined on a relative scale; +++: Uptake was determined on a relative scale; settings: MMT060562, Balb/C, Breast; 5 hours at 37° C.
Method: as §1

Ov 2008 = test: as above; format: cell-based; design: key: −: Uptake was determined on a relative scale; +/−: Uptake was determined on a relative scale; +: Uptake was determined on a relative scale; ++: Uptake was determined on a relative scale; +++: Uptake was determined on a relative scale; settings: Ov 2008, Balb/C-Nu, Ovarian; 5 hours at 37° C.
Method: as §1

Ovcar = test: as above; format: cell-based; design: key: −: Uptake was determined on a relative scale; +/−: Uptake was determined on a relative scale; +: Uptake was determined on a relative scale; ++: Uptake was determined on a relative scale; +++: Uptake was determined on a relative scale; settings: Ovarian, 5 hours at 37° C.
Method: as §1

P815 = test: as above; format: cell-based; design: key: −: Uptake was determined on a relative scale; +/−: Uptake was determined on a relative scale; +: Uptake was determined on a relative scale; ++: Uptake was determined on a relative scale; +++: Uptake was determined on a relative scale; settings: P815, DBA/2, Mastocytoma; 5 hours at 37° C.
Method: as §1

RENCA = test: as above; format: cell-based; design: key: −: Uptake was determined on a relative scale; +/−: Uptake was determined on a relative scale; +: Uptake was determined on a relative scale; ++: Uptake was determined on a relative scale; +++: Uptake was determined on a relative scale; settings: Balb/C, Renal cell, 5 hours at 37° C.
Method: as §1

P815 tumour cells = settings: mice bearing P815 tumour; 5 mg/kg Rhodamine conjugated to HPMA intraperitoneally; six hours after injection; FIG. 1
Method: For tumour accumulation studies, various strains of mice bearing a variety of tumours were injected intraperitoneally with 5 mg/kg Rhodamine conjugated to the HPMA polymers. Six hours after injection, the mice were sacrificed, their tumours removed and cryo-embedded before cryostatic sectioning. The level of accumulation of the Rhodamine-HPMA was determined by fluorescent microscopy using a Zeiss microscope equiped with Axioplan software. […] Blue staining is BisBenzamide staining of cell nuclei.

## O=C(O)CCCC[C@@H]1SC[C@@H]2NC(=O)N[C@@H]21 [Biotin, biotin-substituted-Rhodamine-HPMA]
4T1
  Uptake into the cells (internalization of the rhodamine fluorophore, fluorescent microscopy), relative scale: +++
B16
  Uptake into the cells (internalization of the rhodamine fluorophore, fluorescent microscopy), relative scale: −
BW5147
  Uptake into the cells (internalization of the rhodamine fluorophore, fluorescent microscopy), relative scale: +/−
Colo-26
  Uptake into the cells (internalization of the rhodamine fluorophore, fluorescent microscopy), relative scale: +++
HCT-116
  Uptake into the cells (internalization of the rhodamine fluorophore, fluorescent microscopy), relative scale: −
ID8
  Uptake into the cells (internalization of the rhodamine fluorophore, fluorescent microscopy), relative scale: ++
JC
  Uptake into the cells (internalization of the rhodamine fluorophore, fluorescent microscopy), relative scale: +++
L1210FR
  Uptake into the cells (internalization of the rhodamine fluorophore, fluorescent microscopy), relative scale: +++
L1210
  Uptake into the cells (internalization of the rhodamine fluorophore, fluorescent microscopy), relative scale: −
LL-2
  Uptake into the cells (internalization of the rhodamine fluorophore, fluorescent microscopy), relative scale: −
M109
  Uptake into the cells (internalization of the rhodamine fluorophore, fluorescent microscopy), relative scale: +++
MMT060562
  Uptake into the cells (internalization of the rhodamine fluorophore, fluorescent microscopy), relative scale: +++
Ov 2008
  Uptake into the cells (internalization of the rhodamine fluorophore, fluorescent microscopy), relative scale: ++
Ovcar
  Uptake into the cells (internalization of the rhodamine fluorophore, fluorescent microscopy), relative scale: ++
P815
  Uptake into the cells (internalization of the rhodamine fluorophore, fluorescent microscopy), relative scale: +++
RENCA
  Uptake into the cells (internalization of the rhodamine fluorophore, fluorescent microscopy), relative scale: +++
P815 tumour cells
  Level of accumulation / polymer uptake by P815 tumour cells (fluorescent microscopy of cryostat sections): enhanced by biotin derivatization
